Experimental data: ChEMBL document CHEMBL6071128, “Chalcone-Monoterpene Derivatives from the Buds of Cleistocalyx operculatus and Their Potential as Protein Tyrosine Phosphatase 1B Inhibitors” (J Nat Prod, 2024)
Activity calls are given as the source filed them. The calls are words filed in the database; no cut-off is given here.

Biological target: T1, Tyrosine-protein phosphatase non-receptor type 1 (Homo sapiens) (UniProt P18031)
T1 sequence (whole entry): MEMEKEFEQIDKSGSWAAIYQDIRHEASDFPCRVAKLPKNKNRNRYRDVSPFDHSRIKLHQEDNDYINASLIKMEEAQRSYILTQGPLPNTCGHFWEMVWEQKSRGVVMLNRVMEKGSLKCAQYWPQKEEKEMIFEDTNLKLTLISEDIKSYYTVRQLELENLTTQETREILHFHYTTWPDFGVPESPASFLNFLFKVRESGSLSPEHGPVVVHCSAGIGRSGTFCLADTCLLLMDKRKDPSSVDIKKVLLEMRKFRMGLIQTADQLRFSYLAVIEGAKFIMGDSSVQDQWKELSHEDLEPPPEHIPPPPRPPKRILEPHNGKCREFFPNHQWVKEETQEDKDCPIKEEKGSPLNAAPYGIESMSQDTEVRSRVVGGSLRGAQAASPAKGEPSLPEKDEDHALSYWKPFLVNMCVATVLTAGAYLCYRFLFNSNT
Experiment: Competitive type inhibition of human recombinant PTP1B (1 to 322 residues) extracted from Escherichia coli using p-nitrophenyl phosphate as substrate preincubated for 2 mins followed by substrate addition and measured after 15 mins by Lineweaver-Burk analysis
Conditions: time 17.0 min

`CC1=C2O[C@]34OC(c5ccccc5)CC(O)=C3C(=O)C(C)(C)C(=O)[C@]4(C)CC2=C(O)C(C(=O)/C=C/c2ccccc2)C1=O` (stereo partly specified) was tested, and the inhibition was “Active”.
